Measurements from PubChem BioAssay (NCI).
Several values for one entry are separate records, joined by “and”; a condition that tells them apart may be missing. Equal values may be shown once.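 Grown in 96-well plates, cells were treated for 48 hours with each compound at five concentrations. Insufficient inhibition: endpoint recorded as highest concentration tested. GI50: concentration for 50% inhibition of growth. TGI: total growth inhibition.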

Key:
Test in all cases: NCI tumour cell line growth inhibition, 48 h
[1] = tested on: A498 renal
[2] = tested on: A549 NSCLC
[3] = tested on: ACHN renal
[4] = tested on: BT-549 breast
[5] = tested on: CAKI-1 renal
[6] = tested on: CCRF-CEM leukemia
[7] = tested on: COLO 205 colon
[8] = tested on: DLD-1 colon
[9] = tested on: DMS 114 small cell lung
[10] = tested on: DMS 273 small cell lung
[11] = tested on: DU-145 prostate
[12] = tested on: EKVX NSCLC
[13] = tested on: HCC-2998 colon
[14] = tested on: HCT-116 colon
[15] = tested on: HCT-15 colon
[16] = tested on: HL-60(TB) leukemia
[17] = tested on: HOP-18 NSCLC
[18] = tested on: HOP-62 NSCLC
[19] = tested on: HOP-92 NSCLC
[20] = tested on: HS 578T breast
[21] = tested on: HT29 colon
[22] = tested on: IGROV1 ovarian
[23] = tested on: K-562 leukemia
[24] = tested on: KM12 colon
[25] = tested on: KM20L2 colon
[26] = tested on: LOX IMVI melanoma
[27] = tested on: M14 melanoma
[28] = tested on: M19-MEL melanoma
[29] = tested on: MALME-3M melanoma
[30] = tested on: MCF7 breast
[31] = tested on: MDA-MB-435
[32] = tested on: MDA-N
[33] = tested on: MOLT-4 leukemia
[34] = tested on: NCI-H226 lung
[35] = tested on: NCI-H23 lung
[36] = tested on: NCI-H322M lung
[37] = tested on: NCI-H460 lung
[38] = tested on: NCI-H522 lung
[39] = tested on: NCI/ADR-RES ovarian
[40] = tested on: OVCAR-3 ovarian
[41] = tested on: OVCAR-4 ovarian
[42] = tested on: OVCAR-5 ovarian
[43] = tested on: OVCAR-8 ovarian
[44] = tested on: P388 leukemia
[45] = tested on: P388/ADR leukemia
[46] = tested on: PC-3 prostate
[47] = tested on: RPMI-8226 leukemia
[48] = tested on: RXF 393 renal
[49] = tested on: SF-268 CNS
[50] = tested on: SF-295 CNS
[51] = tested on: SF-539 CNS
[52] = tested on: SK-MEL-2 melanoma
[53] = tested on: SK-MEL-28 melanoma
[54] = tested on: SK-MEL-5 melanoma
[55] = tested on: SK-OV-3 ovarian
[56] = tested on: SN12C renal
[57] = tested on: SN12K1 renal
[58] = tested on: SNB-19 CNS
[59] = tested on: SNB-75 CNS
[60] = tested on: SNB-78 CNS
[61] = tested on: SR leukemia
[62] = tested on: SW-620 colon
[63] = tested on: TK-10 renal
[64] = tested on: U251 CNS
[65] = tested on: UACC-257 melanoma
[66] = tested on: UACC-62 melanoma
[67] = tested on: UO-31 renal
[68] = tested on: XF 498 CNS

In the case of `CC1=C[C@H]2O[C@@H]3C[C@H]4OC(=O)/C=C\C=C\[C@H]([C@@H](C)O)OC[C@H](O)[C@@]5(C)O[C@@H]5C(=O)OC[C@@]2(C[C@H]1O)[C@]4(C)C31CO1` (some centres undefined), the GI50 [1] is reported as 204 nM and 96.4 nM, the TGI [1] is reported as 583 nM and 325 nM and the GI50 [2] is reported as 387 nM and 398 nM. For the same compound, the TGI [2] was 2480 nM and 1200 nM, the GI50 [3] was 338 nM and the TGI [3] was 3140 nM. It also gave a GI50 [4] of 36.9 nM, a TGI [4] of 353 nM and a GI50 [5] of 69 nM. The TGI [5] was 249 nM, the GI50 [6] was 22.6 nM and 22.2 nM and the GI50 [7] was 40.3 nM. For the same compound, the TGI [7] was 96.3 nM, the GI50 [8] was 37.3 nM and the TGI [8] was 165 nM. The GI50 [9] was 17.5 nM, the TGI [9] was 18.6 nM and the GI50 [10] was 30.2 nM. It also gave a TGI [10] of 80.9 nM, a GI50 [11] of 268 nM and a TGI [11] of 793 nM. For the same compound, the GI50 [12] was 149 nM and 25.4 nM, the GI50 [13] was 35.6 nM and the TGI [13] was 90.9 nM. For the same compound, the GI50 [14] was 28.8 nM and 43.9 nM, the TGI [14] was 161 nM and 176 nM and the GI50 [15] was 356 nM and 175 nM. For the same compound, the TGI [15] was 2420 nM and 1940 nM, the GI50 [16] was 21 nM and the TGI [16] was 36.1 nM. The GI50 [17] was 348 nM, the TGI [17] was 1280 nM and the GI50 [18] was 50.7 nM. For the same compound, the TGI [18] was 174 nM, the GI50 [19] was 30 nM and 48.8 nM and the TGI [19] was 225 nM and 359 nM. The GI50 [20] was 16.6 nM, the TGI [20] was 46.7 nM and the GI50 [21] was 66.5 nM. The TGI [21] was 733 nM, the GI50 [22] was 31.5 nM and the TGI [22] was 97.6 nM. The GI50 [23] was 28.3 nM and 35.3 nM, the GI50 [24] was 39.7 nM and 68 nM and the GI50 [25] was 104 nM. The TGI [25] was 524 nM, the GI50 [26] was 14.1 nM and 102 nM and the GI50 [27] was 15.2 nM. The TGI [27] was 53.9 nM, the GI50 [28] was 26.5 nM and the TGI [28] was 56.8 nM. It also gave a GI50 [29] of 28.6 nM, a TGI [29] of 61.1 nM and a GI50 [30] of 31.8 nM. The TGI [30] was 88.2 nM, the GI50 [31] was 32.7 nM and the TGI [31] was 138 nM. For the same compound, the GI50 [32] was 29.8 nM, the TGI [32] was 100 nM and the GI50 [33] was < 10 nM and 22.9 nM. The TGI [33] was 585 nM and 272 nM, the GI50 [34] was 16 nM and 32.5 nM and the TGI [34] was 46.9 nM and 75.2 nM. For the same compound, the GI50 [35] was 38.4 nM and 64.8 nM, the TGI [35] was 215 nM and 237 nM and the GI50 [36] was 331 nM. For the same compound, the TGI [36] was 2470 nM, the GI50 [37] was 34.8 nM and 56.2 nM and the TGI [37] was 173 nM and 176 nM. For the same compound, the GI50 [38] was < 10 nM and 19.4 nM, the TGI [38] was 28.4 nM and the GI50 [39] was 3090 nM. For the same compound, the TGI [39] was 14700 nM, the GI50 [40] was 31.4 nM and 36.9 nM and the TGI [40] was 204 nM and 113 nM. For the same compound, the GI50 [41] was 30.1 nM, the TGI [41] was 60.4 nM and the GI50 [42] was 316 nM. For the same compound, the TGI [42] was 985 nM and 2150 nM, the GI50 [43] was 211 nM and 68.4 nM and the TGI [43] was 1390 nM and 241 nM. For the same compound, the GI50 [44] was 18.6 nM, the TGI [44] was 51.6 nM and the GI50 [45] was 573 nM. It also gave a TGI [45] of 2490 nM, a GI50 [46] of 118 nM and a TGI [46] of 620 nM. The GI50 [47] was < 10 nM and 18.9 nM, the TGI [47] was 22 nM and 53.6 nM and the GI50 [48] was < 10 nM and 31.2 nM. The TGI [48] was 16.7 nM and 88.6 nM, the GI50 [49] was 44.7 nM and 72.7 nM and the TGI [49] was 315 nM and 381 nM. The GI50 [50] was 160 nM and 96.2 nM, the TGI [50] was 465 nM and 278 nM and the GI50 [51] was 22.5 nM and 32.5 nM. The TGI [51] was 62.5 nM and 86.7 nM, the GI50 [52] was 29.1 nM and the TGI [52] was 73.6 nM. For the same compound, the GI50 [53] was 10.3 nM and 28.9 nM, the TGI [53] was 49.5 nM and 84.6 nM and the GI50 [54] was 14.9 nM and 21.3 nM. For the same compound, the TGI [54] was 42.5 nM and 42.4 nM, the GI50 [55] was 178 nM and 85 nM and the TGI [55] was 854 nM and 523 nM. For the same compound, the GI50 [56] was 215 nM and 158 nM, the TGI [56] was 1620 nM and 1280 nM and the GI50 [57] was 30.3 nM. The TGI [57] was 64.2 nM, the GI50 [58] was 21.4 nM and 46 nM and the TGI [58] was 82.3 nM and 266 nM. The GI50 [59] was 25.4 nM and 39.5 nM, the TGI [59] was 85 nM and 99.3 nM and the GI50 [60] was 54.7 nM. For the same compound, the TGI [60] was 616 nM, the GI50 [61] was 15.8 nM and the TGI [61] was 210 nM. The GI50 [62] was 82.6 nM and 65 nM, the GI50 [63] was 188 nM and the TGI [63] was 977 nM. For the same compound, the GI50 [64] was 29 nM and 46.3 nM, the GI50 [65] was 43.6 nM and 59.3 nM and the TGI [65] was 366 nM and 226 nM. For the same compound, the GI50 [66] was 45.3 nM, the TGI [66] was 114 nM and the GI50 [67] was 502 nM and 326 nM. The TGI [67] was 2400 nM and 1470 nM, the GI50 [68] was 30.9 nM and the TGI [68] was 65.8 nM.
